The target in experiment [1] is Cholinesterase (Equus caballus) (UniProt P81908). As to the kind of experiment: Reversible inhibition of equine serum BChE assessed as residual enzyme activity using butyrylthiocholine iodide as substrate at 0.1 times IC50 incubated for 30 mins by Ellman's method.
The target is the same in experiment [2]. Description: Reversible inhibition of equine serum BChE assessed as residual enzyme activity using butyrylthiocholine iodide as substrate at 1 times IC50 incubated for 30 mins by Ellman's method. (In Ellman's method for cholinesterases, released thiocholine reacts with DTNB.)

By UniProt entry, the sequences of proteins in these tests, tags left out.
UniProt P81908, whole entry: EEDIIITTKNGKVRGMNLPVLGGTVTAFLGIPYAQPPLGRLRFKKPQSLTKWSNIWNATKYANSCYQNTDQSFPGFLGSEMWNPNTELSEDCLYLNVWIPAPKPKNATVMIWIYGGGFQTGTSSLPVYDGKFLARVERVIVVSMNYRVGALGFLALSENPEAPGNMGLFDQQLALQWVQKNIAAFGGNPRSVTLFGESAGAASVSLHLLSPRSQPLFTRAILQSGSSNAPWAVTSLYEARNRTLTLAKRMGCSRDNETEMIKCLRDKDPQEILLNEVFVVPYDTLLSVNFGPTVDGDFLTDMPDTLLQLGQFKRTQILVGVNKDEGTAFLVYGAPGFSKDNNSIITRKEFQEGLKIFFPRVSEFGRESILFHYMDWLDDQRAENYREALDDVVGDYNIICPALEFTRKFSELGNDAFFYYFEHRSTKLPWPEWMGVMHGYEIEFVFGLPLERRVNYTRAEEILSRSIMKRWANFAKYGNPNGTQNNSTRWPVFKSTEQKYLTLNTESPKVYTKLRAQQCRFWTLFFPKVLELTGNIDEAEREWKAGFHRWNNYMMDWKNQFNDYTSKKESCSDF

The structures appear in SMILES notation.

For the compound `CON(C)C(=O)Oc1ccccc1C(=O)NCCc1c[nH]c2ccccc12`, the inhibition amounted to 91.3% in experiment [1] and 95.1% in experiment [2].

As usually defined, the inhibition is the percentage by which the read-out fell short of the control.

Source of the values: ChEMBL document CHEMBL5042497, “Design, synthesis, and biological evaluation of carbamate derivatives of N-salicyloyl tryptamine as multifunctional agents for the treatment of Alzheimer's disease” (Eur J Med Chem, 2022).
